The values below come from PubChem BioAssay AID624464 (National Center for Advancing Translational Sciences (NCATS), 2012).

Chains of the proteins cited; added tags and fusions are not shown.
UniProt P14416, whole entry: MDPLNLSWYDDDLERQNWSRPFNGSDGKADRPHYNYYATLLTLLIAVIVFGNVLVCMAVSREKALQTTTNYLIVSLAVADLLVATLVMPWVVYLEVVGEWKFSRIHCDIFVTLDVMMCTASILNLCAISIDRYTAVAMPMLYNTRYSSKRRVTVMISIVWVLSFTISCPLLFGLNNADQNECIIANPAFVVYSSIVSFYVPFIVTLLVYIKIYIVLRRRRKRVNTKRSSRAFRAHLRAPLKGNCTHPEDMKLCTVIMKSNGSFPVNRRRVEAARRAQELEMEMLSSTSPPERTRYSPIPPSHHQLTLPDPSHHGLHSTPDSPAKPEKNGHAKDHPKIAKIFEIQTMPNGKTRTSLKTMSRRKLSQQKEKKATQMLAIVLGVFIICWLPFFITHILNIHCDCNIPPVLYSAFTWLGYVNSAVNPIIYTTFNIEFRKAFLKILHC

The entries are a selection whose mix differs from that of the whole data set. Active and inactive are the calls of the source. Rule as the data show it: active = potentiation above about 50%; inconclusive = mostly about 30% to 49%; inactive = weaker than that.

The target in the assay is D(2) dopamine receptor (Homo sapiens) (UniProt P14416). Nature of the assay: Beta-Arrestin HTS for Positive Allosteric Modulators of the Human D2 Dopamine Receptor: Potentiators. The note with it: DiscoveRx D2 beta-arrestin cells, luminescence, 90 min; stronger effect = higher value; 100% = 57 uM dopamine signal. The source says: There is great interest in identifying small molecule ligands for G-protein coupled receptors (GPCRs) as nearly 50% of all FDA-approved drugs target these important receptor proteins. […] Amongst the dopamine receptors (DARs), the D2 is arguably one of the most validated drug targets in neurology and psychiatry. For instance, all receptor-based antiparkinsonian drugs primarily work via stimulating the D2 DAR, whereas all FDA-approved antipsychotic agents are antagonists of this receptor. The D2 DAR is also therapeutically targeted in other disorders such as restless legs syndrome, tardive dyskinesia, Tourette's syndrome, and hyperprolactinemia.
To this end, a miniaturized qHTS screen was developed to be screened against the Molecular Libraries Small Molecule Repository (MLSMR). This assay seeks to identify potentiators against the D2 DAR.
NIH Molecular Libraries Probe Production Network [MLPCN]
NIH Chemical Genomics Center [NCGC]
PI Name: David Sibley, National Institutes of Neurological Disorders and Stroke
DiscoveRx D2 cells were thawed from frozen stock and seeded at 2,100 cells/ 3 uL/well media (DiscoveRx Plating Reagent 2) with MultiDrop Combi dispenser (Thermo Scientific, Logan, UT) onto white tissue culture treated 1536-well Aurora plates (Brooks Automation, Chelmsford, MA) and allowed to attach overnight at 37 deg C, 5% CO2. Next, 23 nL/well of compound solutions in DMSO were added with a pintool transfer (Kalypsis, San Diego, CA). As the positive control, 1 uL/well dopamine (EC100, 57 uM final concentration) diluted in buffer (HBSS + 10 mM HEPES + SMB + 0.1 %Tween-20) was dispensed to 1 column of each plate. EC20 (Dopamine at 50 nM final concentration) was dispensed to the rest of the plate except columns 1 &2 which were used as negative control (EC=0, buffer only), 1 uL/well as well. The cells were stimulated by compounds and dopamine for 90 minutes at 37 deg C, 5% CO2, after which 1.5 uL/well of DiscoveRx detection reagent was added with BioRAPTR FRD dispenser. The detection reagent was prepared by mixing of Galacton Star Substrate, Emerald II solution and PathHunter buffer (supplied by the assay kit) together at 1:5:19 proportion accordingly just prior to dispensing. The plates were incubated at ambient temperature for 1 hour and then the luminescent signal was read on ViewLux plate reader (PerkinElmer, Waltham, MA).
Regarding `COc1cc(C(=O)NCC2(N3CCOCC3)CCCCC2)cc(OC)c1C`, the potentiation is inactive: -34.3%.
Regarding `CCCCn1nnnc1C(c1ccccc1)N1CCC(n2c(=O)[nH]c3ccccc32)CC1` (stereo not drawn), the potentiation is inactive: 10.5%.
On to `O=C(NCC1(N2CCOCC2)CCCCC1)c1cc(Br)ccc1Cl`, for which the potentiation is inactive: 1.88%.
With `O=c1[nH]c2ccccc2n1C1CCN(C(c2cccs2)c2nnnn2C2CCCCC2)CC1` (stereo not drawn), the potentiation is inactive: 8.49%.
As to `O=c1[nH]c2ccccc2n1C1CCN(C(c2ccnc3ccccc23)c2nnnn2C2CCCC2)CC1` (stereo not drawn), the potentiation is inactive: -3.43%.
For the molecule `COc1ccc(C(=O)NCC2(N3CCOCC3)CCCCC2)cc1OC`, the potentiation was inactive: -3.29%.
As for `CCOC(=O)N1CCC(Nc2ccc(C)cc2)CC1`, the figure is inactive: 12.4%.
As for `COc1cccc(C(c2nnnn2C(C)(C)C)N2CCC(n3c(=O)[nH]c4ccccc43)CC2)c1OC` (stereo not drawn), the potentiation is inactive: -3.7%.
On to `N/C(=N\O)c1c(N)no[n+]1[O-]`, for which the potentiation is inactive: -8.36%.
The result for `O=c1[nH]c2ccccc2n1C1CCN(C(c2cccs2)c2nnnn2C2CCCC2)CC1` (stereo not drawn) reads inactive: 2.61%; that for `O=C(O)c1cccc(Nc2c([N+](=O)[O-])cc([N+](=O)[O-])cc2[N+](=O)[O-])c1`, inactive: -18.4%.
The result for `CCc1cc(C(=O)NCC2(N3CCCCC3)CCCCC2)sc1C` reads inactive: -35.4%.
The result for `O=C(OC1CN2CCC1CC2)C1c2ccccc2C=Cc2ccccc21` (stereo not drawn) reads inactive: -9.32%; that for `CCCCn1nnnc1C(c1cccc(OC)c1OC)N1CCC(n2c(=O)[nH]c3ccccc32)CC1` (stereo not drawn), inactive: 10.3%.
Take `N#Cc1ccc(C(=O)NCC2(N3CCCCC3)CCCCC2)cc1`: the potentiation was inactive: 0.568%.
For the molecule `CC(C)(C)OC(=O)N1CCC(N(C(=O)c2ccccc2)c2ccc(Cl)cc2)CC1`, the potentiation is inactive: -6.92%.
The result for `CCOC(=O)C(CC)C1=NC(C)(C)Cc2ccccc21.O=[N+]([O-])c1cc([N+](=O)[O-])c(O)c([N+](=O)[O-])c1` (stereo not drawn) reads inactive: -15.4%.
The result for `CN(C)C1(CNC(=O)c2cccc(C#N)c2)CCCCC1` reads inactive: -1.87%.
Regarding `Cc1cc(N(CCCl)CCCl)ccc1C=O`, the potentiation was inactive: -6.45%.
The result for `O=c1[nH]c2ccccc2n1C1CCN(C(c2ccccc2)c2nnnn2C2CCCC2)CC1` (stereo not drawn) reads inactive: -15%; that for `CCCN1CCC(Nc2cc(OC)cc(OC)c2)CC1`, inactive: -7.72%.
As for `c1ccc(CN2CCC(Nc3ccccc3)CC2)cc1`, the figure is inactive: -30.6%.
The result for `CC(C)(C)n1nnnc1C(c1cccc2ccccc12)N1CCC(n2c(=O)[nH]c3ccccc32)CC1` (stereo not drawn) reads inactive: 1.05%; that for `CCC(c1nnnn1C1CCCCC1)N1CCC(n2c(=O)[nH]c3ccccc32)CC1` (stereo not drawn), inactive: -5.52%.
For the molecule `COc1cccc(C(c2nnnn2C2CCCCC2)N2CCC(n3c(=O)[nH]c4ccccc43)CC2)c1OC` (stereo not drawn), the potentiation is inactive: 1.86%.
As to `CC(=O)N(c1ccccc1)C1CCNCC1`, the potentiation is inactive: -6.17%.
As for `COc1cc(OC)cc(C(=O)NCC2(N3CCCCC3)CCCCC2)c1`, the potentiation is inactive: -12.4%.
As for `O=c1[nH]c2ccccc2n1C1CCN(C(c2ccnc3ccccc23)c2nnnn2C2CCCCC2)CC1` (stereo not drawn), the figure is inactive: 4.5%; as for `Fc1ccccc1NC1CCN(Cc2ccccc2)CC1`, inactive: -30.9%; as for `Cc1ccc(Nc2c([N+](=O)[O-])cc([N+](=O)[O-])cc2[N+](=O)[O-])cc1`, inactive: -15.9%.
As for `Cc1ccc(C(=O)NCC2(N3CCCCC3)CCCCC2)o1`, the figure is inactive: 1.75%; as for `Cc1ccc(NC2(C#N)CCN(Cc3ccccc3)CC2)cc1`, inactive: -8.8%; as for `CCN1CCC(Nc2cccc(F)c2)CC1`, inactive: -29.5%.
The result for `COc1ccc(C(c2nnnn2C2CCCCC2)N2CCC(n3c(=O)[nH]c4ccccc43)CC2)cc1` (stereo not drawn) reads inactive: -4.08%.
For the molecule `CC(C)(C)n1nnnc1C(c1ccnc2ccccc12)N1CCC(n2c(=O)[nH]c3ccccc32)CC1` (stereo not drawn), the potentiation was inactive: -0.0228%.
The result for `Cc1ccccc1NC1(C#N)CCN(Cc2ccccc2)CC1` reads inactive: -2.58%.
The result for `CN(C)c1ccc(C(=O)NCC2(N3CCCCC3)CCCCC2)cc1` reads inactive: -9.09%; that for `Cn1c(=O)[nH]cc(N(CCCl)CCCl)c1=O`, inactive: -1.64%; that for `O=C(NCC1(N2CCCCC2)CCCCC1)c1ccco1`, inactive: -2.13%.
The result for `CN1CCC(Nc2ccc(F)c(Cl)c2)CC1` reads inactive: -12.5%.
Turning to `CCOc1ncccc1C(=O)NCC1(N2CCOCC2)CCCCC1`, the potentiation is inactive: -23.4%.
The result for `O=C(O)C1(Nc2ccccc2)CCN(Cc2ccccc2)CC1` reads inactive: -9.46%; that for `CC(C)(C)OC(=O)N1CCC(Nc2ccccc2)CC1`, inactive: -2.8%; that for `O=c1[nH]c2ccccc2n1C1CCN(C(c2cc3ccccc3o2)c2nnnn2C2CCCC2)CC1` (stereo not drawn), inactive: -0.194%.
As for `CCCOc1ccc(C(=O)NCC2(N(C)C)CCCCC2)cc1`, the figure is inactive: -7.95%.
The result for `COc1cc(OC)cc(C(=O)NCC2(N3CCOCC3)CCCCC2)c1` reads inactive: -9.19%; that for `COc1cccc(C(c2nnnn2C2CCCC2)N2CCC(n3c(=O)[nH]c4ccccc43)CC2)c1OC` (stereo not drawn), inactive: 6.68%; that for `COc1cccc(C(=O)N(c2cc(C)cc(C)c2)C2CCN(C(=O)OC(C)(C)C)CC2)c1`, inactive: -5.47%.
As to `CCC(CO)(C(=O)OC1CN2CCC1CC2)c1ccccc1` (stereo not drawn), the potentiation was inactive: -4.97%.
The result for `CN1CCC(Nc2ccc(Cl)cc2)CC1` reads inactive: -23.1%; that for `CC(C)(C)OC(=O)N1CCC(N(C(=O)c2ccccc2)c2ccc(F)cc2)CC1`, inactive: -5.66%; that for `COc1ccc(C(=O)NCC2(N3CCCCC3)CCCCC2)c(OC)c1OC`, inactive: 4.15%.
As for `CCC(c1nnnn1C1CCCC1)N1CCC(n2c(=O)[nH]c3ccccc32)CC1` (stereo not drawn), the potentiation was inactive: -5.54%.
Consider `COc1ccc(C(=O)NCC2(N3CCCCC3)CCCCC2)cc1`, for which the potentiation was inactive: -10.5%.
The result for `O=C(NCC1(N2CCCCC2)CCCCC1)c1cccs1` reads inactive: -37.7%; that for `CCCCn1nnnc1C(CC)N1CCC(n2c(=O)[nH]c3ccccc32)CC1` (stereo not drawn), inactive: 0.395%; that for `CCCCn1nnnc1C(c1cccs1)N1CCC(n2c(=O)[nH]c3ccccc32)CC1` (stereo not drawn), inactive: 24.2%.
As for `O=C(NCC1(N2CCCCC2)CCCCC1)c1ccc(=O)[nH]c1`, the figure is inactive: -6.91%.
